# Binding of CDR-mutated scFvs to a peptide of the spike HR2 region

Target: peptide PDVDLGDISGINAS, taken from heptad repeat 2 (HR2) of SARS-CoV-2 spike.

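The starting antibody came from a phage panning campaign against this peptide. In library AAYL52, one, two or three CDR residues were substituted; doubles and triples were drawn at random. The assay is AlphaSeq: two haploid yeast populations carry antibody and antigen on their surface. The frequency of each diploid, read from paired DNA barcodes, reflects how well the two displayed proteins bind. A regression on co-assayed BCL2-family reference pairs converts the normalised counts of each replicate to an apparent Kd. Each pool was mated in three replicate cultures.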

The variants keep the heavy chain, the linker and the frameworks of Ab-95 (scFv order VH, the linker GGGGSGGGGSGGGGS, VL).
VH: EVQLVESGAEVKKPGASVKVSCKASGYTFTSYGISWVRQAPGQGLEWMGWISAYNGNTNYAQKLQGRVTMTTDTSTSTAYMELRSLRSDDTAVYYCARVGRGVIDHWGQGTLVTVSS
VL: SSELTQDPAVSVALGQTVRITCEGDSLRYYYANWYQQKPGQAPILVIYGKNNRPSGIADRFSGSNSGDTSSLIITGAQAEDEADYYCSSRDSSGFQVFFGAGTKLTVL

Positions count from residue 1 of the parent VL; S92L puts L in place of S.
All variants listed here change S92 of the VL, counted from its first residue.
Values are apparent Kd, the geometric mean of the replicates that gave a signal; lower means stronger binding.
"nd" marks a missing value. The strain was present, yet no cells mated with the target were sequenced in any replicate, which points to weak or no binding.
Parent in this assay: reference entry 200 nM, copy in this library 180 nM.

With S92L S93L the result was 82 nM (3 of 3 replicates; controls 1 of 9). With K50L S92G V97G the result was 610 µM (1 of 3 replicates; controls 3 of 9). The variant G24L Y29E S92E gave nd (0 of 3 replicates; controls 1 of 9). The variant S89I S92K S93R showed 110 nM (3 of 3 replicates; controls 5 of 9). With G24H Y30L S92W the result was 1.9 µM (2 of 3 replicates; controls 2 of 9). With K50Q S92I the result was 120 nM (3 of 3 replicates; controls 1 of 9).

The variant S55Y S92E S93E gave 1.2 µM (3 of 3 replicates; controls 1 of 9). The variant G49N S92W showed 510 nM (3 of 3 replicates; controls 2 of 9). The variant R90N S92Q gave 2.7 µM (1 of 3 replicates; controls 0 of 9). With G24C S92A F98N the result was 4.2 µM (3 of 3 replicates; controls 2 of 9). For R28Y K50C S92P, the assay gave 1.2 µM (3 of 3 replicates; controls 2 of 9). For A32E S92I, the assay gave 20 nM (3 of 3 replicates; controls 5 of 9).

With S88C S92D F98E the result was 1.8 µM (3 of 3 replicates; controls 4 of 9). For S92A V97E, the assay gave 190 nM (3 of 3 replicates; controls 1 of 9). With Y29M K50F S92A the result was 1.7 µM (2 of 3 replicates; controls 1 of 9). The variant S92R F95G F98Q gave 470 nM (3 of 3 replicates; controls 4 of 9). The variant R28Q S88T S92E showed 11 µM (1 of 3 replicates; controls 0 of 9). The variant N33L S92F V97D gave 21 µM (3 of 3 replicates; controls 3 of 9).

With Y29F S55D S92W the result was 450 nM (1 of 3 replicates; controls 0 of 9). The variant S26H S88D S92L gave nd (0 of 3 replicates; controls 0 of 9). The variant N33L N52R S92D showed nd (0 of 3 replicates; controls 3 of 9). The variant N52C D91A S92D showed 6.0 µM (3 of 3 replicates; controls 5 of 9). The variant N33A G49F S92Q showed nd (0 of 3 replicates; controls 3 of 9). The variant E23I S92I F98L showed 1.1 µM (1 of 3 replicates; controls 0 of 9).

With N33R S89I S92M the result was 10 µM (1 of 3 replicates; controls 0 of 9). The variant R90E S92Q F95I gave 4.3 µM (1 of 3 replicates; controls 0 of 9). With L27I S89N S92Y the result was 80 µM (2 of 3 replicates; controls 5 of 9). The variant S89D S92V V97L showed 550 nM (3 of 3 replicates; controls 1 of 9). With D25C S88W S92M the result was nd (0 of 3 replicates; controls 1 of 9). The variant S92I F98C showed 9.1 µM (2 of 3 replicates; controls 4 of 9).

With N33T S55V S92E the result was nd (0 of 3 replicates; controls 4 of 9). With Y31A S92C V97R the result was 190 nM (3 of 3 replicates; controls 3 of 9). With D25R S92T F98S the result was 210 nM (3 of 3 replicates; controls 6 of 9). With A32D S92E the result was nd (0 of 3 replicates; controls 0 of 9). For N51D S92P, the assay gave 4.5 µM (3 of 3 replicates; controls 1 of 9).

For reference, 2 entries of the list once more:

changes,Kd,seen in,signal with controls
N33R S89I S92M,10 µM,1/3,0/9
A32D S92E,nd,0/3,0/9

As a blank, each scFv also met three strains without target: over library AAYL52, 28% of these pairings were detected, typically at 8.2 µM and seldom below 800 nM. The control count says in how many pairings with the empty strains this scFv gave a signal.

Reference: Engelhart et al. 2022, doi:10.1038/s41597-022-01779-4. File: FLAb, binding data.